# Shown are actives, neighbours in structure and some others; about 2.3% of the full set was active somewhere.
# A549 tox: kills or reduces viability of A549 cells in Nrf2 counter-screen; Potency, µM (top dose mostly 46 µM), for inactives: at the top dose activity change, negative = cytotoxicity, usual class: inhibitors; AID 504648; 390,000 tested, 0.16% active; A549 ARE-Fluc cells, CellTiter-Fluor viability, 18-24 h; also: potency is read from the fitted curve at half-maximal effect; % is scaled to controls: 0 for no effect and ±100 for the full control effect
#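 Cytotoxicity counterscreen: CellTiter-Fluor fluorescence was measured in A549 ARE_Fluc cells after 18-24 h of compound exposure in a concentration series. The subsequent BugLite luminescent read reports ARE-luciferase activity.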
# miR-21 FLuc: miR-21 reporter, rising signal | HeLa miR-21 FLuc reporter, luciferase, 48 h | Potency, µM (top dose mostly 38.3 µM), inactives show at the highest dose reporter change, positive = more light | 340,000 tested, under 10 active | AID 2288; active = well fitted rising curve with a large enough effect; inconclusive = small, poorly fitted or top-dose-only effect; inactive = no such curve, though single readings can be large or run the other way;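 note: % of control where 0% means no effect; miR-21 action dims this reporter so a rising signal means less miR-21 action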
#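 HeLa cells endogenously expressing miR-21, stably carrying CMV-driven firefly luciferase with a downstream miR-21 binding site, 2000 cells/well. Titrations up to approximately 40 uM, 48 hours; luciferase luminescence read.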
# Nrf2 ARE act: activators of Nrf2 (ARE) signaling. AID 624171. 410,000 tested, 0.31% active. Potency, µM (series often up to 46.1 µM), for the others: at the highest dose activation, usual class: activators. AREc32 ARE-luciferase reporter (MCF7-derived line), luminescence, 24 h; also: potency is read from the fitted curve at half-maximal effect; % of control where 0% means no effect; nearly all actives have a fitted effect of over 65% in size
#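 Cells of the AREc32 ARE-luciferase line are plated in OPTI-MEM containing 5% FBS and left overnight at 37 deg C. Compounds are pinned in, incubation continues 24 hr, and firefly luciferase signal is then measured.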
# Mito fusion yeast: inhibitors of mitochondrial division or activators of mitochondrial fusion; S. cerevisiae fusion-defective mutant growth rescue, CellTiterGlo 48 h; Potency, µM (titrated, usually from 46.1 µM), inactives show at the top dose growth rescue (activation), most hits filed as activators; 320,000 tested, 0.23% active; AID 485298; also: potency is read from the fitted curve at half-maximal effect; % of control where 0% means no effect; nearly all actives have a fitted effect of over 45% in size
#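 Luminescent cell viability in 1536-well qHTS format served as the measure of rescued growth in ts fusion-mutant S. cerevisiae cultured on non-fermentable YPEG for 48 hours at 37C.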
# Nrf2 inh: Nrf2 pathway inhibition; A549 ARE-Fluc reporter, luciferase luminescence, 18-24 h; Potency, µM (series often up to 46 µM), for inactives: top-dose activity change, negative = inhibition, most hits filed as inhibitors; 360,000 tested, 2.1% active; AID 504444; also: potency is read from the fitted curve at half-maximal effect; % is scaled to controls: 0 for no effect and ±100 for the full control effect; nearly all actives have a fitted effect of over 60% in size
#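 In this cell-based qHTS, ARE-driven firefly luciferase in A549 cells reports Nrf2 activity; the luminescent signal after BugLite lysis is the measured value, with a prior CellTiter-Fluor read for cell health.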
# GRP78 ERSR act: ER stress response induction in glioma. U87-MG GRP78 promoter luciferase reporter, 16 h. Potency, µM, for inactives: at the highest dose activation, usual class: activators. 420,000 tested, 0.02% active; also: potency is read from the fitted curve at half-maximal effect; series mostly up to about 76 µM; % of control where 0% means no effect; nearly all actives have a fitted effect of over 35% in size
#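 Stably transfected U87-MG human glioma cells carrying a GRP78-based luminescent sensor were seeded at 1000 cells/well, pin-dosed with compounds and incubated 16 h. Luciferase reagent was then added, and end-point luminescence was read after 10 min at room temperature.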
# Starred values were filed as active, the others as inactive; u = inconclusive; x = no result given. Unless noted, calls follow the shape of the dose curve; as a rule, active = well fitted curve in the direction sought with a large enough effect; inconclusive = small, poorly fitted or top-dose-only effect, or another doubt; inactive = no such curve, though single readings can be large; an effect the other way counts as inactive or inconclusive.
# Short forms – A = A549 tox; B = miR-21 FLuc; C = Nrf2 ARE act; D = Mito fusion yeast; E = Nrf2 inh; F = GRP78 ERSR act
[1] COc1cc(NC(=O)CCc2c(C)nc3cc(-c4ccccc4)nn3c2C)cc(OC)c1OC
  A: -3% | B: 8% | C: -2% | D: x | E: 2.6µM* | F: -7%

[2] COc1ccc(-c2cc3nc(C)c(CCC(=O)NCCc4ccc(Cl)cc4)c(C)n3n2)c(OC)c1
  A: u | B: -4% | C: 0% | D: x | E: u | F: -3%

[3] COc1ccc(CCNC(=O)CCc2c(C)nc3cc(-c4ccccc4OC)nn3c2C)c(OC)c1
  A: -3% | B: 27% | C: 0% | D: x | E: 23µM* | F: -5%

[4] COC(=O)c1cc(NC(=O)CCc2c(C)nc3cc(-c4ccccc4)nn3c2C)cc(C(=O)OC)c1
  A: 1% | B: 4% | C: -1% | D: x | E: 11% | F: -3%

[5] Cc1nc2cc(-c3cccc(F)c3)nn2c(C)c1CCC(=O)NC(C)c1ccccc1 (configuration not stated)
  A: -8% | B: 21% | C: 6% | D: x | E: 3.7µM* | F: -7%

[6] CCOC(=O)N1CCN(c2c(N3CCN(c4cc(C)ccc4C)CC3)c(=O)c2=O)CC1
  A: 1% | B: -1% | C: -2% | D: -3% | E: -13% | F: -3%

[7] COc1ccc(NCC(=O)Nc2c(C)cccc2C)cc1S(=O)(=O)N1CCOCC1
  A: x | B: x | C: -2% | D: x | E: x | F: -2%

[8] CCOc1cc(/C=C/C(=O)c2ccc3c(c2)OCCO3)ccc1OCC(=O)N(C)C
  A: 2% | B: u | C: 11µM* | D: -9% | E: -17% | F: -9%

[9] CCOc1cc(/C=C/C(=O)c2ccc(O)cc2)ccc1OCC(=O)N(C)C
  A: -14% | B: u | C: u | D: -1% | E: -13% | F: 1%

[10] COc1ccccc1CNC(=O)CN1C(=O)NC2(CCOc3ccccc32)C1=O (configuration not stated)
  A: 3% | B: x | C: -2% | D: x | E: 1% | F: -5%

[11] CCS(=O)(=O)N1CCC(C(=O)N2CCc3ccccc3C2)CC1
  A: 6% | B: -7% | C: 2% | D: 0% | E: 6% | F: -4%

[12] COCOCCn1cc(CN2CCS(=O)(=O)N(Cc3ccc(-c4ccc(F)cc4)cc3)C(CC(C)C)C2=O)nn1 (configuration not stated)
  A: x | B: x | C: -4% | D: x | E: x | F: -9%

[13] N#CC1=C(N)Oc2c(ccc3ccccc23)C1c1cccs1 (configuration not stated)
  A: u | B: -8% | C: 2.8µM* | D: 3% | E: u | F: -3%

[14] N#CC1=C(N)Oc2cc(O)ccc2C1c1cccs1 (configuration not stated)
  A: -4% | B: 7% | C: 0% | D: 1% | E: x | F: -4%

[15] COC(=O)c1ccccc1NC(=O)C1CC(c2ccc(F)cc2)=NO1 (configuration not stated)
  A: -7% | B: -15% | C: 2% | D: 17% | E: 4.1µM* | F: -1%

[16] NC(=S)NN=C1c2cc(OCCN3CCOCC3)ccc2-c2ccc(OCCN3CCOCC3)cc21
  A: 16µM* | B: u | C: -2% | D: 16% | E: 16µM* | F: -10%

[17] ON=C1c2cc(OCCN3CCCCC3)ccc2-c2ccc(OCCN3CCCCC3)cc21
  A: u | B: -17% | C: 23% | D: 2% | E: 2% | F: -7%

[18] COc1cccc(NC(=O)CN(C)C(=O)CCN2C(=O)C3CC=CCC3C2=O)c1 (configuration not stated)
  A: -1% | B: x | C: 0% | D: -2% | E: -8% | F: -3%

[19] COc1cccc(-c2cc(C(F)(F)F)nc(-n3cc(Cl)cn3)n2)c1
  A: 1% | B: -6% | C: 0% | D: 2% | E: 10µM* | F: 2%

[20] Fc1ccc(NC(=S)Nc2ccc(Br)cc2)cc1
  A: u | B: 23% | C: 2% | D: -8% | E: 18µM* | F: -3%

[21] Cc1cc(C(=O)Cn2nnc(-c3ccc(Cl)cc3)n2)c(C)n1CC1CCCO1 (configuration not stated)
  A: -9% | B: 6% | C: 0% | D: 2% | E: 13µM* | F: -2%

[22] Cc1cc(C)n2nc(SCC(=O)c3cc(C)n(CC4CCCO4)c3C)nc2n1 (configuration not stated)
  A: -5% | B: -1% | C: 2% | D: 10% | E: 10µM* | F: -5%

[23] O=C(c1ccc2c(=O)n3c(nc2c1)CCCCC3)N1CCN(C(c2ccccc2)c2ccccc2)CC1
  A: -17% | B: 20% | C: -1% | D: -5% | E: 21µM* | F: -3%

[24] O=C(c1ccc2c(=O)n3c(nc2c1)CCCCC3)N1CCN(c2ccc([N+](=O)[O-])cc2)CC1
  A: u | B: -2% | C: 0% | D: -1% | E: 23µM* | F: -5%

[25] O=C(c1ccc2c(=O)n3c(nc2c1)CCCCC3)N1CCN(c2ccccc2)CC1
  A: -5% | B: -2% | C: 0% | D: -2% | E: -3% | F: -3%

[26] Cc1cc(-c2ccc(C)c(S(=O)(=O)Nc3cccc(C#N)c3)c2)on1
  A: -24% | B: 9% | C: 0% | D: x | E: 7.3µM* | F: -1%

[27] COc1ccc(-c2cnc(C)o2)cc1S(=O)(=O)Nc1cccc(C(F)(F)F)c1
  A: -6% | B: 2% | C: 5% | D: x | E: x | F: 2%

[28] COc1ccc(-c2cc(C)no2)cc1S(=O)(=O)Nc1cccc(C(F)(F)F)c1
  A: 5% | B: 13% | C: 1% | D: x | E: 18µM* | F: -1%

[29] COc1ccc2c(Cl)c(C(N)=O)sc2c1
  A: -5% | B: -18% | C: 2% | D: 4% | E: 5% | F: 2%

[30] COc1ccc2c(Cl)c(C(=O)NN)sc2c1
  A: -3% | B: -4% | C: -1% | D: 1% | E: 15µM* | F: -2%

# New compounds follow
no.	Compound	A549 tox	miR-21 FLuc	Nrf2 ARE act	Mito fusion yeast	Nrf2 inh	GRP78 ERSR act
31	CC(Sc1nnnn1-c1ccc(O)cc1)c1nc2ccccc2c(=O)[nH]1 (configuration not stated)	6%	0%	-1%	4%	-10%	0%
32	COc1ccccc1N1CCN(C(=O)CSc2nc(C)c(C)c(=O)[nH]2)CC1	-1%	0%	1%	11%	3%	-3%
33	NC(=O)c1cc(S(=O)(=O)Nc2ccc(OC(F)(F)F)cc2)cs1	-3%	0%	0%	14%	18µM*	-3%
34	CC(C(=O)NCCCc1ccccc1)n1cccc1C(=O)c1ccccc1 (configuration not stated)	6%	0%	0%	22µM*	u	-4%
35	O=C(Cn1cccc1C(=O)c1ccccc1)NCCCc1ccccc1	2%	0%	-1%	7%	-9%	-2%
36	CCCC1(CCC)NC(=O)N(CC(=O)N2CCN(C(=O)c3ccco3)CC2)C1=O	-6%	2%	0%	3%	10%	0%
37	CC(CCc1ccccc1)NC(=O)c1ccccc1 (configuration not stated)	9%	-6%	-1%	1%	x	3%
38	CC(CCc1ccccc1)NC(=O)c1ccc(C(=O)NC(C)CCc2ccccc2)cc1 (configuration not stated)	u	7%	0%	1%	12µM*	-8%
39	COc1ccc(-c2[nH]c(-c3cc(OC)c4c(c3)OCO4)nc2-c2ccccc2)cc1	u	21%	2%	u	23µM*	-1%
40	O=C(c1ccccc1F)N1CCCC(c2ccccc2)C1 (configuration not stated)	0%	-8%	0%	4%	-6%	0%

# Two entries picked at random from those above:
no.	Compound	A549 tox	miR-21 FLuc	Nrf2 ARE act	Mito fusion yeast	Nrf2 inh	GRP78 ERSR act
15	COC(=O)c1ccccc1NC(=O)C1CC(c2ccc(F)cc2)=NO1 (configuration not stated)	-7%	-15%	2%	17%	4.1µM*	-1%
7	COc1ccc(NCC(=O)Nc2c(C)cccc2C)cc1S(=O)(=O)N1CCOCC1	x	x	-2%	x	x	-2%

# Quoted from above: compounds 38–40
no.	Compound	A549 tox	miR-21 FLuc	Nrf2 ARE act	Mito fusion yeast	Nrf2 inh	GRP78 ERSR act
38	CC(CCc1ccccc1)NC(=O)c1ccc(C(=O)NC(C)CCc2ccccc2)cc1 (configuration not stated)	u	7%	0%	1%	12µM*	-8%
39	COc1ccc(-c2[nH]c(-c3cc(OC)c4c(c3)OCO4)nc2-c2ccccc2)cc1	u	21%	2%	u	23µM*	-1%
40	O=C(c1ccccc1F)N1CCCC(c2ccccc2)C1 (configuration not stated)	0%	-8%	0%	4%	-6%	0%
